Source: PubChem BioAssay
An excerpt weighted towards active compounds, which were near 0.34% of everything screened.
Cneo AK release: causes C. neoformans cell lysis; adenylate kinase release luminescence, 4 h; normalised: neutral wells 0, clomiphene wells 100; lysis activity, % at 15 µM; 360,000 tested, 0.2% active;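 active means mean lysis activity across replicates of at least 80%, whatever share of replicates individually reach that level; inactive means mean lysis activity below 80%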
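Material: C. neoformans cells | Amount: Yeast cell density of 5 × 10^6 cells/mL | Medium: Fresh YPD growth medium | Dosing: Single dose | Times: Static 4 h at 37 °C with compound, 1 h detection | Detection: AK luminescence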
ERp5 block: inhibitors of human ERp5; Q15084; ERp5 insulin aggregation, absorbance 650 nm, 90 min; inhibition, % at 9.99 µM; 350,000 tested, 0.05% active; AID 651711;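 active means mean replicate inhibition above about 25%, with every replicate also reaching it, limit read from the data, passing the limit was not always enough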
PDI inh: PDI (human) enzyme inhibition. P07237. 350,000 tested, 0.052% active. inhibition, % at 10 µM. PDI insulin aggregation turbidity, A650, 90 min;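 active means mean inhibition across replicates of 30% or more, whatever share of single replicates reach that level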
Yeast UUG start-1: modulators of yeast start codon fidelity, primary screen, whole organism, S. cerevisiae, single point, plate reader | AID 602363, 2012 | S. cerevisiae UUG-firefly luciferase reporter, luminescence/redox ratio | activity score, % at 18.7 µM | hit rate 0.13% among 350,000;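 active = replicate mean at a twofold rise or more, about +100% in these data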;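 also: firefly luciferase made from a UUG start codon reports start codon fidelity; reporter light over untreated wells divided by growth signal over untreated wells; some hits fall short of that in this replicate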
Yeast UUG start-2: yeast start codon fidelity modulation | shares compounds with Yeast UUG start-1 | S. cerevisiae UUG-start firefly luciferase, luminescence, 4 h; 100% means double the DMSO signal | activation, % at 38 µM | 540 tested, under 10 active | AID 652061;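 active means signal increase whose fitted curve reaches an absolute level of 40 at a concentration under 10 µM; inactive means activity opposite to the expected increase, or the rest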
Active calls of the source: *; i = inactive; . = not tested or not shown.

smiles | Cneo AK release | ERp5 block | PDI inh | Yeast UUG start-1 | Yeast UUG start-2
O=C1CCCCCN1C(=O)c1ccccc1 | . | -10 | -28 | . | .
CC(C)(C)c1ccc(C(=O)N2CCCCCC2=O)cc1 | -7 | . | -3 | 279* | 9
CN(C)CC(=O)N[C@@H]1C=C[C@@H](CC(=O)NCc2ccccc2F)O[C@H]1CO | -4 | 5 | . | 0 | .
CCN(C(=O)c1cc(Cl)ccc1OC)c1ccccc1 | 3 | . | -4 | -5 | .
CCN(C(=O)c1cc(Cl)ccc1OC)c1ccccc1C | 1 | . | 3 | 128* | 4
CN(C)Cc1cn(CC[C@@H]2CC[C@@H](N)[C@H](CO)O2)nn1 | -1 | -4 | . | 8 | .
CC(C)c1cn(CC[C@H]2CC[C@H](N)[C@@H](CO)O2)nn1 | 1 | -4 | . | 134* | i
C[C@@H]1CN([C@@H](C)CO)C(=O)Cc2cc(NC(=O)c3ccncc3)ccc2O[C@@H]1CN(C)C(=O)Nc1ccc(C(F)(F)F)cc1 | 4 | -6 | . | 10 | .
COCC(=O)Nc1ccc2c(c1)OC[C@H](C)N(C(=O)COC)C[C@H](C)[C@@H](OC)CN(C)C2=O | . | 3 | . | . | .
CO[C@@H]1CN(C)C(=O)c2ccc(NC(=O)c3ccccc3F)cc2OC[C@H](C)N(C(C)=O)C[C@@H]1C | -13 | -1 | . | 123* | i
COCC(=O)Nc1ccc2c(c1)OC[C@@H](C)N(C(=O)c1cnccn1)C[C@@H](C)[C@@H](OC)CN(C)C2=O | -5 | 12 | . | 156* | i
CO[C@@H]1CN(C)C(=O)c2ccc(NC(=O)c3ccccc3F)cc2OC[C@@H](C)N(C(C)=O)C[C@@H]1C | -2 | 0 | . | 2 | .
COCC(=O)Nc1ccc2c(c1)C(=O)N(C)C[C@@H](OC)[C@H](C)CN(Cc1ccccc1F)[C@H](C)CO2 | 0 | -2 | . | 3 | .
COCC(=O)Nc1ccc2c(c1)C(=O)N(C)C[C@@H](OC)[C@@H](C)CN(Cc1ccccc1F)[C@@H](C)CO2 | 1 | 9 | . | 180* | i
COCC(=O)Nc1ccc2c(c1)OC[C@@H](C)N(C(=O)COC)C[C@@H](C)[C@@H](OC)CN(C)C2=O | 0 | -6 | . | 197* | i
Cn1nc(CC(=O)N2CCN(c3ccccc3)CC2)c2ccccc2c1=O | -1 | . | -1 | -8 | -2

Whole records, looked up by structure:
Entry for COCC(=O)Nc1ccc2c(c1)OC[C@@H](C)N(C(=O)c1cnccn1)C[C@@H](C)[C@@H](OC)CN(C)C2=O : Cneo AK release: -5; ERp5 block: 12; PDI inh: .; Yeast UUG start-1: 156*; Yeast UUG start-2: i
Entry for Cn1nc(CC(=O)N2CCN(c3ccccc3)CC2)c2ccccc2c1=O : Cneo AK release: -1; ERp5 block: .; PDI inh: -1; Yeast UUG start-1: -8; Yeast UUG start-2: -2

Gathered by group: the entries above with a Cl atom
smiles | Cneo AK release | ERp5 block | PDI inh | Yeast UUG start-1 | Yeast UUG start-2
CCN(C(=O)c1cc(Cl)ccc1OC)c1ccccc1 | 3 | . | -4 | -5 | .
CCN(C(=O)c1cc(Cl)ccc1OC)c1ccccc1C | 1 | . | 3 | 128* | 4

Further records
smiles | Cneo AK release | ERp5 block | PDI inh | Yeast UUG start-1 | Yeast UUG start-2
CC1CCN(C(=O)Cc2nn(C)c(=O)c3ccccc23)CC1 | 1 | . | 3 | -9 | 4
Cc1ccc(S(=O)(=O)N(C)C[C@H]2Oc3ccc(NC(=O)Cc4ccccc4)cc3CC(=O)N([C@@H](C)CO)C[C@@H]2C)cc1 | 50 | -1 | . | 24 | .
CC(C)NC(=O)N1CC(=O)N2[C@H](C1)[C@H](c1ccc(/C=C/c3ccccc3)cc1)[C@@H]2CO | . | -2 | . | . | .
Cc1ccc(S(=O)(=O)N2CCOCC2)cc1C(=O)OC(C)C(=O)NC1CCCC1 (stereo unspecified) | 1 | -10 | -10 | 119* | -5
CNC[C@@H]1Oc2c(NC(=O)Nc3c(C)noc3C)cccc2C(=O)N([C@@H](C)CO)C[C@@H]1C | -1 | 2 | . | 5 | .
CC(=O)Nc1ccc(S(=O)(=O)NCCC(=O)Nc2ccc(C)c(F)c2)cc1 | 8 | -7 | -1 | 200* | -1
CC(=O)NCCC(=O)Nc1ccc(C)c(F)c1 | -2 | . | -4 | -9 | .
COc1ccc(-c2nn(-c3ccccc3)cc2/C=C2/SC(=S)N(CCC(=O)O)C2=O)cc1 | 3 | -1 | -4 | 6 | .
Cc1ccc(-c2nn(-c3ccccc3)cc2/C=C2\SC(=S)N(CC(=O)O)C2=O)cc1 | 1 | 2 | -4 | 527* | 2
CCN(CC)CCNC(=O)Cn1nc(Cc2ccncc2)c2ccccc2c1=O | 0 | 1 | 3 | -4 | .
CCN(CC)CCNC(=O)Cc1nn(Cc2ccccc2)c(=O)c2ccccc12 | -1 | 4 | -1 | -18 | -8
CCc1c(O)c(/C(C)=N\O)c(=O)n(-c2ccccc2)c1-c1ccccc1 | 2 | . | -2 | -13 | .
C=CCO/N=C(/C)c1c(O)c(CC)c(-c2ccccc2)n(-c2ccccc2)c1=O | -9 | . | -7 | 280* | -4
CCN(CC)S(=O)(=O)c1ccc(C(=O)Nc2cc(C)cc(C)c2)cc1 | -2 | . | -3 | 322* | 3
CCN(CC)S(=O)(=O)c1cccc(C(=O)Nc2cc(C)cc(C)c2)c1 | -2 | . | 7 | 1 | .
COc1cccc(Oc2nc3ncn(Cc4ccccc4)c3c(=O)n2C)c1 | 1 | . | -7 | 113* | 13
COc1cccc(Cn2c(Oc3ccccc3)nc3c2c(=O)n(C)c(=O)n3C)c1 | 4 | . | 2 | -12 | .
O=C(NCc1ccccn1)c1ccc(-c2ccccc2)cc1 | . | -7 | 4 | . | .
